Experiments:
LMTK3 [1] = biological target: T1, LMTK3 (Homo sapiens, UniProt Q96Q04); assay: 32P γ-ATP in vitro kinase assay, phosphorylation of HSP27 by LMTK3; type: biochemical
ERα = assay: Western blotting of ERα protein in BC cell lines; type: cell-based, human; conditions: MCF7, T47D, MDA-MB-231
[2] = Mouse microsomal stability assay; conditions: mouse microsomes
LMTK3 [3] = biological target: T1, LMTK3; assay: Western blotting of LMTK3 protein in BC cell lines; type: cell-based; conditions: MCF7, T47D, MDA-MB-231

Protein sequences, listed by entry. Tags and fused reporters are not part of them. Residues count along the entry.
UniProt Q96Q04, 105-415 limits assumed: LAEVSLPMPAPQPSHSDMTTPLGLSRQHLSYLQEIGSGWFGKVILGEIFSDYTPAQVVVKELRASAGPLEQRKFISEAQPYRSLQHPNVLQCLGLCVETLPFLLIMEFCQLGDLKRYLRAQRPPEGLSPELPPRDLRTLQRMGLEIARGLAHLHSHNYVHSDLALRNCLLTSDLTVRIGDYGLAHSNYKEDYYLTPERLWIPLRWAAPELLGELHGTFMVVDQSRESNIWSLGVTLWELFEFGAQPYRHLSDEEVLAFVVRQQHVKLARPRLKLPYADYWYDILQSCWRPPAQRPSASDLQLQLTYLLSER
UniProt Q96Q04, 21-1460 limits assumed: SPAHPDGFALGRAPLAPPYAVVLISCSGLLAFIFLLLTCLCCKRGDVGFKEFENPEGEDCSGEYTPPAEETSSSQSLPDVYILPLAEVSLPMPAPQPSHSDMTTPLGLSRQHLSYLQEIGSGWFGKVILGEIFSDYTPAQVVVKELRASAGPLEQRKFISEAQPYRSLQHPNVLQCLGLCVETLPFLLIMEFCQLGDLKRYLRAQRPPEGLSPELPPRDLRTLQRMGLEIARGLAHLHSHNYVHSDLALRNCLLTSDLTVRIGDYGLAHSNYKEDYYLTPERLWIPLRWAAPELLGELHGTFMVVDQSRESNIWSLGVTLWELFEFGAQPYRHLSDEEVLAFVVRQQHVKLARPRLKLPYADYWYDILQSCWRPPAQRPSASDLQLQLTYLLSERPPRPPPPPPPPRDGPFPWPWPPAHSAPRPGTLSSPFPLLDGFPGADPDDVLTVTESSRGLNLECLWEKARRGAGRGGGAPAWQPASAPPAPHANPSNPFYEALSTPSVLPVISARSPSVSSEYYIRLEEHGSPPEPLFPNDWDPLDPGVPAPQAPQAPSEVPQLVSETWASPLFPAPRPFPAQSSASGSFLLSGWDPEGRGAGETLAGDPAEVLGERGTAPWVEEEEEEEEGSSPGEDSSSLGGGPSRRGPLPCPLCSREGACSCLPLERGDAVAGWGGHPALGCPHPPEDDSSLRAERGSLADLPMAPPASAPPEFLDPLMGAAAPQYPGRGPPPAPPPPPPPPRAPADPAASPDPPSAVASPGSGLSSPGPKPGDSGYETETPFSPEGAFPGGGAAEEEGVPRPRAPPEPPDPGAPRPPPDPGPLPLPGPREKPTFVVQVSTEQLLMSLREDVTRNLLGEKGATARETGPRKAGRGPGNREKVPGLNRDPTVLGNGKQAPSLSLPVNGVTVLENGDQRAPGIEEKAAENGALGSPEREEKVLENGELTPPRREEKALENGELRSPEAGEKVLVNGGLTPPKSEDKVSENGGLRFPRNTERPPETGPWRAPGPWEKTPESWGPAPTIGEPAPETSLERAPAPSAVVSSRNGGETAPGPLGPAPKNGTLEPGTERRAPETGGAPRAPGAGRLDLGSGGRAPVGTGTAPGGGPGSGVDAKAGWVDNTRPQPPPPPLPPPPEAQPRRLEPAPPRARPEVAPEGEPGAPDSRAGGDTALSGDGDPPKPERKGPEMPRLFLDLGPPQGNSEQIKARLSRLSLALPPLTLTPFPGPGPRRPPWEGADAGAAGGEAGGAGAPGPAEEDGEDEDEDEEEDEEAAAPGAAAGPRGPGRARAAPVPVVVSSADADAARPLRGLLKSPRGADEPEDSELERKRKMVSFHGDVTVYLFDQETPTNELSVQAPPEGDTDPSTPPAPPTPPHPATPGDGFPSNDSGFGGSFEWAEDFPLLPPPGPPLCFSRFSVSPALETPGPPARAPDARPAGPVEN

## Cc1cc(-c2ccc3ncc(-c4cccc(OC(F)(F)F)c4)n3n2)cc(C)n1
LMTK3 [1]; 500 nM and 1 μM
  relative inhibition in the in vitro kinase assay: best inhibitor
LMTK3 [1]; read-out: Approximate IC50, in vitro kinase assay
  IC50: 350 nM
ERα
  inhibition of ERα protein levels in cancer cell lines: best inhibitor
[2]
  clearance: medium clearance
LMTK3 [3]
  inhibition of LMTK3 protein levels in cancer cell lines: best inhibitor

Reference: patent US20230355617A1, “SMALL MOLECULE INHIBITORS OF LEMUR TYROSINE KINASE 3” (The University of Sussex, priority 2020, published 2023)
